Test results from patent US9902734B2, “Nicotinic acetylcholine receptor agonists” (priority 2010, dated 2018).

Sequences of proteins named here, by UniProt entry; tags and fusion partners are left off. Residues count along the entry.
UniProt P04757, 26-499: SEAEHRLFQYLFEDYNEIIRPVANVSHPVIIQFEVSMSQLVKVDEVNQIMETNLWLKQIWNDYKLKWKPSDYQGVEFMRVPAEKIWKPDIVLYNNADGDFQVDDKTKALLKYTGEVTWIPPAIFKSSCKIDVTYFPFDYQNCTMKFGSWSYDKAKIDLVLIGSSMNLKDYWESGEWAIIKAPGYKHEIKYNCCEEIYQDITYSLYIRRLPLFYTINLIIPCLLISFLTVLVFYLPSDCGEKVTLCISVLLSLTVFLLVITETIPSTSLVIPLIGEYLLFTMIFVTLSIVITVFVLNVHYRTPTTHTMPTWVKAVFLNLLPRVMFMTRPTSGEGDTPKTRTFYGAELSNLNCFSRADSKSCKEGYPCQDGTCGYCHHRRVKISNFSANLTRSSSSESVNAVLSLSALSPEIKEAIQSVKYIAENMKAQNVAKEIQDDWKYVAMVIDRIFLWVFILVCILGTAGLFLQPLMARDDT
UniProt P12392, 21-495: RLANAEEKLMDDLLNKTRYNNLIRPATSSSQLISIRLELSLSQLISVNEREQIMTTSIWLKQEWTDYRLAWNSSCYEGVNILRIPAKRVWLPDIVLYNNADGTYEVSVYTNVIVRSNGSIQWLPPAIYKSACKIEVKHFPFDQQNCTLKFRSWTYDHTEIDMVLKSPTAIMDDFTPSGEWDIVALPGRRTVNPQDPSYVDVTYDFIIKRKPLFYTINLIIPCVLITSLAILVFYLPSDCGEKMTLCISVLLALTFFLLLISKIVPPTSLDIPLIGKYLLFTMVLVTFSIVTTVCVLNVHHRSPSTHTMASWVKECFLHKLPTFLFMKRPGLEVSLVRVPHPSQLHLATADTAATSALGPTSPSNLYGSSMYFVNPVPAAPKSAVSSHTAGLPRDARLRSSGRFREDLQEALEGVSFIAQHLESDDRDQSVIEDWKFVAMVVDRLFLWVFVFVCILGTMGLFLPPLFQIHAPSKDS

Target: T1, KXα3β4R2 cells (HEK cells expressing rat α3 and β4 nicotinic receptor subunits) (Rattus norvegicus, UniProt P04757+P12392)
T1 construct: expressed in transfected cells; host or cells: HEK cells (KXα3β4R2)
Format: cell-based
Conditions: fractions of E. anthonyi alkaloid extract

SMILES: Clc1ccc(C2CC3CCC2N3)cn1 (stereo not shown) [Compound 1, epibatidine]
- nicotinic-agonist activity of isolated fraction: greatest activity; also recorded: major activity of the three

“Also recorded” adds a separate entry of the source.
